In the test the test system is B6μ, Heμ and CXμ mice. Kind of test: tail-flick test. Format: in vivo, mouse. As to conditions: CXμ mice vs B6μ and Heμ littermates; 10 mg/kg intraperitoneal; 10 minutes after injection; p<0.05.

As for `CN(C(=O)Cc1ccc(Cl)c(Cl)c1)[C@H]1CCCC[C@@H]1N1CCCC1.Cl`, the “latency of response to heat stimulus (drug-induced analgesia), tail-flick test” value is “significantly shorter latency than the littermates”.

(Values after patent US20030003050A1 (priority 2001, published 2003).)
